# Data taken from patent publication US11498930B2 (BLUERAY THERAPEUTICS (SHANGHAI) CO., LTD., priority 2018, dated 2022).
# Test system: MOLM-13 cells
# Experiment: MOLM-13 cell proliferation experiment
# Format: cell-based
# Settings: Homo sapiens, MOLM-13, read-out: MOLM-13 cell proliferation IC50
# Procedure: After 3 days, 5 µL of CellTiter-Glo reagent (Promega, ZG7572) was added to each well, and the plates were kept at room temperature in the dark for 10 minutes. The […] was detected by Spectra max i3 (Molecular Devices). The relative growth rate of the treated cells was compared with that of DMSO control.
structure (smiles),measurement,value
"CC1(N)CCN(c2cnc(-c3cccc(Cl)c3Cl)c(N)n2)CC1 [SHP099, 6-(4-amino-4-methylpiperidin-1-yl)-3-(2,3-dichlorophenyl)pyrazin-2-amine, reference compound]",IC50,1370 nM
